Drawing on paper PMC9603901, “Therapeutic Potential of Antimicrobial Peptide PN5 against Multidrug-Resistant E. coli and Anti-Inflammatory Activity in a Septic Mouse Model” (Microbiology Spectrum, 2022), this text covers MIC for 1 molecule.

The structures appear in SMILES notation. Values after ≈ are worked out from the molar mass of the structure shown.

For one experiment, the system named is E. coli ATCC 25922. Type of experiment: cell-based, Escherichia coli. The conditions noted are these: microdilution, LB, 2 × 10^5 CFU mL^−1, 18 to 24 h, 37°C, three independent experiments. Here is the method: (§1) Bacterial cells were cultured at 37°C in the appropriate culture media with shaking (180 rpm). Luria-Bertani broth (LB) (244620; BD Difco) was used for E. coli ATCC 25922, ASEC strains, and B. subtilis KCTC 2217. Nutrient broth (NB) (234000; BD Difco) was used for P. aeruginosa ATCC 27853, S. Typhimurium KCTC 1926, and A. baumannii KCTC 2508. Tryptic soy broth (TSB) (211825; BD Difco) was used for S. aureus ATCC 25923. Finally, brain heart infusion (BHI) (237500; BD Difco) was used for L. monocytogenes KCTC 3710. The antimicrobial activity of each peptide was determined using microdilution assays. To this end, 2-fold serial dilution series of each peptide (from 1 to 64 μM) were added to duplicate media with 10 mM sodium phosphate buffer (pH 7.4). Fifty microliters of the peptide and antibiotic solution was added to each well of a 96-well plate (32096, surface nontreatment; SPL Life Sciences). Then, 50 μL of 2 × 10^5 CFU mL^−1 of bacteria was added to each well, and the samples were incubated for 18 to 24 h without shaking at 37°C.
Background: Dilution methods test growth across graded concentrations, often in twofold steps.

A further experiment has as its system S. aureus ATCC 25923. The format is cell-based, Staphylococcus aureus. The following applies: microdilution, TSB, 18 to 24 h, 37°C, three independent experiments. Here is the method: as §1
For a further experiment, the system named is P. aeruginosa ATCC 27853. Type of experiment: cell-based, Pseudomonas aeruginosa. The conditions noted are these: microdilution, NB, 18 to 24 h, 37°C, three independent experiments. Here is the method: as §1

For the molecule `CC[C@H](C)[C@H](NC(=O)CN)C(=O)NCC(=O)N[C@@H](C)C(=O)N[C@H](C(=O)N[C@@H](CC(C)C)C(=O)N[C@@H](CCCCN)C(=O)N[C@H](C(=O)N[C@@H](CC(C)C)C(=O)N[C@H](C(=O)N[C@H](C(=O)NCC(=O)N[C@@H](CC(C)C)C(=O)N1CCC[C@H]1C(=O)N[C@@H](C)C(=O)N[C@@H](CC(C)C)C(=O)N[C@H](C(=O)N[C@@H](CO)C(=O)N[C@@H](Cc1c[nH]c2ccccc12)C(=O)N[C@H](C(=O)N[C@@H](CCCCN)C(=O)N[C@@H](CCCNC(=N)N)C(=O)N[C@@H](CCCCN)C(=O)N[C@@H](CCCNC(=N)N)C(=O)N[C@@H](CCC(N)=O)C(=O)N[C@@H](CCC(N)=O)C(N)=O)[C@@H](C)CC)[C@@H](C)CC)[C@@H](C)O)[C@@H](C)O)C(C)C)C(C)C` [Melittin], the MIC with E. coli ATCC 25922 is 2 (5.69) μM; in the experiment on S. aureus ATCC 25923 it was 2 µM (≈ 5.69 µg/mL); in the experiment with P. aeruginosa ATCC 27853, 4 µM (≈ 11.4 µg/mL).
